Measured values as given in PMC7443318 (Journal of medicinal chemistry, 2020).

Columns and labels:
mA3AR [1] = biological target: T1, mA3AR (Mus musculus, UniProt Q61618); conditions: HEK-293 cells, compared to 38 (Cl-IB-MECA); cited from earlier work
T1 sequence (Q61618 1-319): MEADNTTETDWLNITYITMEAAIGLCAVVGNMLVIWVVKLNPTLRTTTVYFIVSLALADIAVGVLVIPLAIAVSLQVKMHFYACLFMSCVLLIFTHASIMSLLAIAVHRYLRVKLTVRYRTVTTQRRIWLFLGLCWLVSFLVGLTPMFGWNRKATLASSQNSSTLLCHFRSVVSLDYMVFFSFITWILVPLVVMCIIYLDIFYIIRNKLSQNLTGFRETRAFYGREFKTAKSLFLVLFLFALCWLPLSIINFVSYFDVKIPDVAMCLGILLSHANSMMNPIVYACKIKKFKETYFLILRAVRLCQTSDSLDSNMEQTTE

mA3AR [2] = biological target: T1, mA3AR

SMILES	Emax, inhibition of forskolin-stimulated cyclic AMP production (mA3AR [1]) [%]	mA3AR selectivity (mA3AR [2]) [fold]
O[C@@H]1[C@H](O)[C@@H]2C[C@@H]2[C@H]1n1cnc2c(NCCc3ccccc3)nc(C#Cc3ccccc3)nc21 [Compound 8]	14	–
COc1cc(CCNc2nc(C#Cc3ccc(Br)s3)nc3c2ncn3[C@H]2[C@H](O)[C@H](O)[C@@H]3C[C@@H]32)ccc1O [Compound 30, (1R,2R,3S,4R,5S)-4-(2-((5-Bromothiophen-2-yl)ethynyl)-6-((4-hydroxy-3-methoxyphenethyl)amino)-9H-purin-9-yl)bicyclo[3.1.0]hexane-2,3-diol]	–	> 1000
